Assay results published in ChEMBL document CHEMBL6114988, “Design, synthesis and biological evaluation of dual CDK9/PARP inhibitors for the treatment of cancer” (Eur J Med Chem, 2025).

The chains behind the UniProt entries cited, without tags or fusion partners. Where a name states a change or a piece, a line headed by the entry shows the natural chain unless it says otherwise.
UniProt O94921: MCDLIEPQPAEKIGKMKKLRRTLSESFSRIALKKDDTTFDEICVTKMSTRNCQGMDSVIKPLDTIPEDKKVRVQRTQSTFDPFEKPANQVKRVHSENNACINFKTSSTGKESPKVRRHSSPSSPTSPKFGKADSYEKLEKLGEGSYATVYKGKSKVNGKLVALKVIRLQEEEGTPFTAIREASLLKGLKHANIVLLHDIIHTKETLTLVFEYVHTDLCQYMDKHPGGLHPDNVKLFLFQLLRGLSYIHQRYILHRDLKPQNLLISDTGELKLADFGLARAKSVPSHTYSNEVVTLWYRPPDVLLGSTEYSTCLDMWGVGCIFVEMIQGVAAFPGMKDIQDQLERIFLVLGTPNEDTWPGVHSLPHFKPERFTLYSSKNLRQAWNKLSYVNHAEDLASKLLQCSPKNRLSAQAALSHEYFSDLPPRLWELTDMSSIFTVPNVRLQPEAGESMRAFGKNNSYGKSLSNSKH
UniProt Q8ND76: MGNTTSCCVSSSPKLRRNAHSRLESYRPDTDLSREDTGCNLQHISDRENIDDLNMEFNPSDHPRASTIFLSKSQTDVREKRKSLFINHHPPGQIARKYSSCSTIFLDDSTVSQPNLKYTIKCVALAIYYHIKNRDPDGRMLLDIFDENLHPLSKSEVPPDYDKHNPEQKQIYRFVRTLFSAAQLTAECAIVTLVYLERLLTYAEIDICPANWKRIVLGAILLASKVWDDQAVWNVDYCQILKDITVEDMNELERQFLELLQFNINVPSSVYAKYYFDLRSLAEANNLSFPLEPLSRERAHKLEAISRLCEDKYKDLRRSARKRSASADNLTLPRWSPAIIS
UniProt P06493, whole entry, looked up: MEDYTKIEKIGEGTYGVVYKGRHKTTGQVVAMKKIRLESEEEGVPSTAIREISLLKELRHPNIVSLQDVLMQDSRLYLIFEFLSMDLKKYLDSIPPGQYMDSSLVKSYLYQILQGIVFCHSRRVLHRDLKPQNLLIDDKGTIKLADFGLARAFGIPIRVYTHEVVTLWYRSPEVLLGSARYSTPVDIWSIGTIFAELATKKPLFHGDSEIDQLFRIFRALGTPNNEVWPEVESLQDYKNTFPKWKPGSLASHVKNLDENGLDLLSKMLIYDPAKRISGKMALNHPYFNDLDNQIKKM
UniProt P20248, whole entry, looked up: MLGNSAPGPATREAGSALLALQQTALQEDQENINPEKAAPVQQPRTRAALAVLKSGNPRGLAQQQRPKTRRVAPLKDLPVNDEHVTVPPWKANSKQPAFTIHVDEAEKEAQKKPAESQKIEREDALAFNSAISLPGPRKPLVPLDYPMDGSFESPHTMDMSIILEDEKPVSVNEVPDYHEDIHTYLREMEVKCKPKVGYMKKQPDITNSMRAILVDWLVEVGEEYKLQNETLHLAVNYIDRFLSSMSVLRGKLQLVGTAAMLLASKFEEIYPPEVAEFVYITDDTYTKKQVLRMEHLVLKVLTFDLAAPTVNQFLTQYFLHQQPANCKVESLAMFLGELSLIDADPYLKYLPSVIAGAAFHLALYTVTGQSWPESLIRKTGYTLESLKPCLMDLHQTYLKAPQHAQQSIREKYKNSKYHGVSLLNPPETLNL
UniProt O75909: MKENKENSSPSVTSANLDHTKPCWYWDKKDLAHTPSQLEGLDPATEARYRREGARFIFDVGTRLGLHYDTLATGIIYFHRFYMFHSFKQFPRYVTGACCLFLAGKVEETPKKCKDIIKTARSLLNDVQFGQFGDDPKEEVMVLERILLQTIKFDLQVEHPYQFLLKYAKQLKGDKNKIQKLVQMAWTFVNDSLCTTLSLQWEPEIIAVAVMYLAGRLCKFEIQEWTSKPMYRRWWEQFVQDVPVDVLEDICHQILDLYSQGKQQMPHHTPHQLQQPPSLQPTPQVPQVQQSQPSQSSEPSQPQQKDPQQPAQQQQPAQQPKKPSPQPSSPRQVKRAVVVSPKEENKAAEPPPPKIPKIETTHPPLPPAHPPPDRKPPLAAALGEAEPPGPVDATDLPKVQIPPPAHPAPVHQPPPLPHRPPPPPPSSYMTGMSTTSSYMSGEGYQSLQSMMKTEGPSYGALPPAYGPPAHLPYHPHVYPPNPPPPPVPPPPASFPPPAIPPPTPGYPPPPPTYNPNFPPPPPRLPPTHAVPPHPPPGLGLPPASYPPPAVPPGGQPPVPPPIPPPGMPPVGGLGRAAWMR
UniProt P49336: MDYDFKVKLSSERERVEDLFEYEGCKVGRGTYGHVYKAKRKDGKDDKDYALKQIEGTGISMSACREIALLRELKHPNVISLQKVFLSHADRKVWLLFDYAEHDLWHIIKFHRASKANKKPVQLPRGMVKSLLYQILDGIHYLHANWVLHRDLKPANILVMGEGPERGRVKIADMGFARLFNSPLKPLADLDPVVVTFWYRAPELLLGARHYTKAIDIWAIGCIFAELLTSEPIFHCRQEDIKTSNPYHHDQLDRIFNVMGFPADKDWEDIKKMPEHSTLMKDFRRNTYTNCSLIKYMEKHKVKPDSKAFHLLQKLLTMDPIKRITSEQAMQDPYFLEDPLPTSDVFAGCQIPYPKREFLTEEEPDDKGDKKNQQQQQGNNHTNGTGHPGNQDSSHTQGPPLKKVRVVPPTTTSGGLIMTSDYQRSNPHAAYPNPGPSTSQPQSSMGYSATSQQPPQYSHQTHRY
UniProt P24863: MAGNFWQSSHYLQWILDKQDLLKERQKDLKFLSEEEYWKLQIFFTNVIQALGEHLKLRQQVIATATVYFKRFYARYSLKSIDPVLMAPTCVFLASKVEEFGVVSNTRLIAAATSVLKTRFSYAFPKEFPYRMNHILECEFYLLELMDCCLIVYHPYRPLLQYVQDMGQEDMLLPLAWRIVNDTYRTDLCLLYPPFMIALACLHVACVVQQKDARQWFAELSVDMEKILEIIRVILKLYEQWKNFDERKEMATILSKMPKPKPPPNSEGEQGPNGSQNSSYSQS
UniProt P11802: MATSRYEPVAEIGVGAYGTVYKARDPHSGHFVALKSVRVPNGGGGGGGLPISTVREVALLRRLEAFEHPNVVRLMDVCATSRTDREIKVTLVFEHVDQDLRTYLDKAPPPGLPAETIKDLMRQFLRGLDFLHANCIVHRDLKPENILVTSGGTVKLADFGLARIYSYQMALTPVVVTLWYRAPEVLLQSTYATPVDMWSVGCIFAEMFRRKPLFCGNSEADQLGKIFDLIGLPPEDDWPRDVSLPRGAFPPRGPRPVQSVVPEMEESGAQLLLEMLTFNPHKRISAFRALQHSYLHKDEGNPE
UniProt P24385: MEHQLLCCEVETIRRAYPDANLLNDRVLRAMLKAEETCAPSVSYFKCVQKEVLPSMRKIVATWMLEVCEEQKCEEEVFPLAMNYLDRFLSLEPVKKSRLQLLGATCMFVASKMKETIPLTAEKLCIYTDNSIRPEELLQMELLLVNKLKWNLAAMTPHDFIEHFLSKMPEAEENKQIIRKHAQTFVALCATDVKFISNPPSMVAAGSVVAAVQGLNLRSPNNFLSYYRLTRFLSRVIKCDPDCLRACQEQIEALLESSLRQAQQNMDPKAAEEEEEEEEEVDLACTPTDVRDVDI
UniProt Q96Q40: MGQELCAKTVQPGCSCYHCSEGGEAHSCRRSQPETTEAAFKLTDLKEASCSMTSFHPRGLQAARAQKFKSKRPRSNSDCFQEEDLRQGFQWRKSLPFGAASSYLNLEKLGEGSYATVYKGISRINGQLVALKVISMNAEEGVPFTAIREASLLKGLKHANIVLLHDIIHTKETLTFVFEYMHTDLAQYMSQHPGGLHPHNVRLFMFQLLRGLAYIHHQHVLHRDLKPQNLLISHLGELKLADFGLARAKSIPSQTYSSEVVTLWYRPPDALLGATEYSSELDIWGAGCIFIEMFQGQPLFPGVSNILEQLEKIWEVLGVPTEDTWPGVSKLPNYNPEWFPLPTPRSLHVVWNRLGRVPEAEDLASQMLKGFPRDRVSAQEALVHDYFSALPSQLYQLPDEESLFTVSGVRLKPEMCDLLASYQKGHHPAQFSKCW
UniProt P24864, whole entry, looked up: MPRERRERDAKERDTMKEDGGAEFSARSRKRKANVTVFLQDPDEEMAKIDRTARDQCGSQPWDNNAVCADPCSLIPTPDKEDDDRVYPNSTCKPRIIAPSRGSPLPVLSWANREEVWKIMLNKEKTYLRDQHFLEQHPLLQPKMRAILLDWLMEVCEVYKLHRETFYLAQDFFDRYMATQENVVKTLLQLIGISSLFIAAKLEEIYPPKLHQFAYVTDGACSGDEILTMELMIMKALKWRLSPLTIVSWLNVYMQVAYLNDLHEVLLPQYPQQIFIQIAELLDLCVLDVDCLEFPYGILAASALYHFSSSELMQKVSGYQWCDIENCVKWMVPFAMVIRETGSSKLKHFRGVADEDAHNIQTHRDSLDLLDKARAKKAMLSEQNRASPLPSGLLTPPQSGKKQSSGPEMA
UniProt Q00526: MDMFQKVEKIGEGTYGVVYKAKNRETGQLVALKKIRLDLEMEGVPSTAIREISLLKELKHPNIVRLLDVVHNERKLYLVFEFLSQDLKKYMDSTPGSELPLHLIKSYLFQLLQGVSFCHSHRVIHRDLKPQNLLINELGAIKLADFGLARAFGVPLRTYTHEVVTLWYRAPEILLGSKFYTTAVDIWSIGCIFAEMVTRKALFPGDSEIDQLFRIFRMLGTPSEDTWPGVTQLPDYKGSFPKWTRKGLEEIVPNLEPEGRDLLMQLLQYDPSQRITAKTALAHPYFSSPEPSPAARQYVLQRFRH
UniProt Q00536: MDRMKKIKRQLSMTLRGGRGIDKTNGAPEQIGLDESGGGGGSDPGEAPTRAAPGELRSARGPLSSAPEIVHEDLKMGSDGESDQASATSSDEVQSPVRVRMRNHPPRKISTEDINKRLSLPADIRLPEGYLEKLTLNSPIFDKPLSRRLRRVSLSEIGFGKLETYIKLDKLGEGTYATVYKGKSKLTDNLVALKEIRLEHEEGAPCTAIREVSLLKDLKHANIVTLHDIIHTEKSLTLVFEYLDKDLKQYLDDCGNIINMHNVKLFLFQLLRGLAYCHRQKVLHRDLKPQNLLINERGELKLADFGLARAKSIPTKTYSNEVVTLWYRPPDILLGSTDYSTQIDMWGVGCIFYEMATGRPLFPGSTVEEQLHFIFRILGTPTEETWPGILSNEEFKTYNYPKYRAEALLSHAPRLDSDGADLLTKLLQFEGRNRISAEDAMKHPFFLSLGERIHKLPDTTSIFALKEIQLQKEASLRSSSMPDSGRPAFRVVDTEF
UniProt Q00534: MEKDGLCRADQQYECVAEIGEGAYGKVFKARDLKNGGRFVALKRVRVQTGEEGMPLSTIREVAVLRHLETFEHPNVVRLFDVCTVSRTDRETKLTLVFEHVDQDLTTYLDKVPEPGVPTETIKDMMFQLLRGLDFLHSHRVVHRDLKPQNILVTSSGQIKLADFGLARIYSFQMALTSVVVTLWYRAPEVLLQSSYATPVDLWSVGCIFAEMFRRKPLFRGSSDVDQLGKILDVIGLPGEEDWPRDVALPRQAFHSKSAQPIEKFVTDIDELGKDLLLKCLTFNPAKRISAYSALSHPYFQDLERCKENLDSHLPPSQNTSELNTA
UniProt P51946: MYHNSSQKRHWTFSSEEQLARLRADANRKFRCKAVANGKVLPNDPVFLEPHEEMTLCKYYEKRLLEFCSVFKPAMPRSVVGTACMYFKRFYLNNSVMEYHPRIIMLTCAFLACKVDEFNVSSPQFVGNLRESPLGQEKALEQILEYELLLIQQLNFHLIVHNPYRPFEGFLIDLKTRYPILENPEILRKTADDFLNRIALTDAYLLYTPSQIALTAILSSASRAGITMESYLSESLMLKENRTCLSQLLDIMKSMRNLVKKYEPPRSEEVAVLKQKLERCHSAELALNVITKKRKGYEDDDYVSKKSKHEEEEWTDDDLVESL
UniProt P50613: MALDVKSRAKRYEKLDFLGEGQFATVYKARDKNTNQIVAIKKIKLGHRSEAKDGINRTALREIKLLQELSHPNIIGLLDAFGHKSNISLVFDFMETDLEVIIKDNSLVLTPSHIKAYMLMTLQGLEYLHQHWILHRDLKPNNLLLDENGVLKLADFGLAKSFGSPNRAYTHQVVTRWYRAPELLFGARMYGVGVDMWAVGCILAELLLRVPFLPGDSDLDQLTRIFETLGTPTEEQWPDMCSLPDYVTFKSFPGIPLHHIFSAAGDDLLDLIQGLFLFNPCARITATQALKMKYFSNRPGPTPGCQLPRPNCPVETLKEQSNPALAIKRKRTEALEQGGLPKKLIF
UniProt Q00535, whole entry, looked up: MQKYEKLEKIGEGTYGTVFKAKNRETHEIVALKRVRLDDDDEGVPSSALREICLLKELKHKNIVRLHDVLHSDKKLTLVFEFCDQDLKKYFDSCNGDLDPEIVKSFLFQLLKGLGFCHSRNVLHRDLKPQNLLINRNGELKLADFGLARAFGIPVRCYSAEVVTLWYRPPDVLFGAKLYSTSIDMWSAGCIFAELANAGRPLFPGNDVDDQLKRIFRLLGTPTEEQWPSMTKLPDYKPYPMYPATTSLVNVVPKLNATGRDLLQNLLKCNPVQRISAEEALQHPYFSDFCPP

Legend:
[1] = target: Cyclin-dependent kinase 14/Cyclin-Y (Homo sapiens) (UniProt O94921+Q8ND76); details: dose 200.0 nM, time 70.0 min
[2] = target: CDK1/Cyclin A (Homo sapiens) (UniProt P06493+P20248); details: dose 200.0 nM, time 70.0 min
Homo sapiens = species on record: Homo sapiens; details: dose 200.0 nM, time 10.0 min
[3] = target: T1, CDK12/Cyclin K (Homo sapiens) (UniProt O75909+Q9NYV4); details: dose 200.0 nM, time 70.0 min
[4] = target: CDK8/Cyclin C (Homo sapiens) (UniProt P49336+P24863); details: dose 200.0 nM, time 70.0 min
[5] = target: Cyclin-dependent kinase 4/cyclin D1 (Homo sapiens) (UniProt P11802+P24385); details: dose 200.0 nM, time 70.0 min
[6] = target: CDK15/Cyclin Y (Homo sapiens) (UniProt Q96Q40+Q8ND76); details: dose 200.0 nM, time 70.0 min
[7] = target: CDK3/Cyclin E (Homo sapiens) (UniProt P24864+Q00526); details: dose 200.0 nM, time 70.0 min
[8] = target: Cyclin-dependent kinase 2/cyclin E1 (Homo sapiens) (UniProt P24864+P24941); details: dose 200.0 nM, time 70.0 min
[9] = target: Cyclin-Y/Cyclin-dependent kinase 16 (Homo sapiens) (UniProt Q00536+Q8ND76); details: dose 200.0 nM, time 70.0 min
[10] = target: CDK6/cyclin D1 (Homo sapiens) (UniProt P24385+Q00534); details: dose 200.0 nM, time 70.0 min
[11] = target: CDK7/Cyclin H/MNAT1 (Homo sapiens) (UniProt P51946+P50613+P51948); details: dose 200.0 nM, time 70.0 min
[12] = target: CDK18/Cyclin Y (Homo sapiens) (UniProt Q07002+Q8ND76); details: dose 200.0 nM, time 70.0 min
[13] = target: Cyclin-dependent kinase 5/CDK5 activator 1 (Homo sapiens) (UniProt Q00535+Q15078); details: dose 200.0 nM, time 70.0 min
[14] = target: T1, CDK12/Cyclin K (Homo sapiens); details: dose 200.0 nM, time 70.0 min; remark: listed apart in the source

## COc1ccc(-c2cc(Nc3cc(CN4CCN(C(=O)c5cc(Cc6n[nH]c(=O)c7ccccc67)ccc5F)CC4)ccn3)ncn2)c(OC)c1
[1]
  inhibition: -6.59%
[2]
  inhibition: 5.09%
Homo sapiens
  inhibition: -2.74%
[3]
  inhibition: 6.17%
[4]
  inhibition: -5.12%
[5]
  inhibition: 1.65%
[6]
  inhibition: -5.6%
[7]
  inhibition: 4.45%
[8]
  inhibition: 5.52%
[9]
  inhibition: 4.84%
[10]
  inhibition: -4.81%
[11]
  inhibition: -4.16%
[12]
  inhibition: 3.06%
[13]
  inhibition: -1.9%
[14]
  inhibition: 7.17%
